The values that follow are results of earlier work, collected in patent publication US20130273057A1, “METHODS AND COMPOSITIONS FOR THE TREATMENT AND DIAGNOSIS OF VASCULAR INFLAMMATORY DISORDERS OR ENDOTHELIAL CELL DISORDERS” (Beth Israel Deaconess Medical Center, Inc., priority 2007, published 2013).

By UniProt entry, the sequences of proteins in these tests, tags left out. Residues count along the entry.
UniProt P35968, 20-1356: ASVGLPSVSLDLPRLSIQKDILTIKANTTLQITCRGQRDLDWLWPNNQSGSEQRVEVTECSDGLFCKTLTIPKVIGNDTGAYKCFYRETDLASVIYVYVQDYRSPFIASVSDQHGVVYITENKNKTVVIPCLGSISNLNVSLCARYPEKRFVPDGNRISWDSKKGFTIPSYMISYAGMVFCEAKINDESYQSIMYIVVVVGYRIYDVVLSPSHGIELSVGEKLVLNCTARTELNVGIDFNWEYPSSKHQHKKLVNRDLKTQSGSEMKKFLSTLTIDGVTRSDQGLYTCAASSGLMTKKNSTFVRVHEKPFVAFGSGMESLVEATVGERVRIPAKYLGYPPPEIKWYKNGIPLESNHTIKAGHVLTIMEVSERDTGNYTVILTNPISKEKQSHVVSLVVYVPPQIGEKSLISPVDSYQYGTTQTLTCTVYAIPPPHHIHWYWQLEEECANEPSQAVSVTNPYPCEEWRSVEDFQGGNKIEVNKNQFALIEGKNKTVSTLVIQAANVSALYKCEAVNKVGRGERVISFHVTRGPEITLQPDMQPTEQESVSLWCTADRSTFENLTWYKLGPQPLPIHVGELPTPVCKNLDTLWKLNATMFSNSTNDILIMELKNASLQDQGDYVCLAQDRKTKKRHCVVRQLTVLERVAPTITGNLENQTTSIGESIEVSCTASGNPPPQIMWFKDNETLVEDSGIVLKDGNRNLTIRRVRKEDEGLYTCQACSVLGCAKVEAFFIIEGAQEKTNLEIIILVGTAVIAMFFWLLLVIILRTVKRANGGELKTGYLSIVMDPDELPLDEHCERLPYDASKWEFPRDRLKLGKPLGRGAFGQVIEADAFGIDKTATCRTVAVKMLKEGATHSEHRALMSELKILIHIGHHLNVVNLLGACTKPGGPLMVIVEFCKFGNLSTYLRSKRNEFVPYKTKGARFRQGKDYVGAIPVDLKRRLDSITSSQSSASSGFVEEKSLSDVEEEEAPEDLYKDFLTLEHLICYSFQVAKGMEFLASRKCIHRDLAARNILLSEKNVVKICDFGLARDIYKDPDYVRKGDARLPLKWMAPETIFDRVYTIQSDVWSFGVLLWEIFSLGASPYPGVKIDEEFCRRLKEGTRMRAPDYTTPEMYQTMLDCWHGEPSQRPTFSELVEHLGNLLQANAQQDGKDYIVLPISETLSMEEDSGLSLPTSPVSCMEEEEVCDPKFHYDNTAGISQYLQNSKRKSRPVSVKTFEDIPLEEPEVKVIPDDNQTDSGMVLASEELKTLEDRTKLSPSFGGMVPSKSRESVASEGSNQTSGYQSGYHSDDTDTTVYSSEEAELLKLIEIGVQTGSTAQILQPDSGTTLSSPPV

A word on the Kd: it is the free concentration of one partner at which half of the binding sites on the other are occupied at equilibrium, for simple one-to-one binding.

This series deals with KDR (Homo sapiens, UniProt P35968). To be noted: read-out: Kd of VEGF binding to KDR; cited from earlier work.

VEGF: the equilibrium dissociation constant (Kd) was 0.075 nM.
